Experimental data: IntAct's records for PubMed 35512704

B1: RAC-alpha serine/threonine-protein kinase (Homo sapiens), P31749 (parent)
chain: MSDVAIVKEGWLHKRGEYIKTWRPRYFLLKNDGTFIGYKERPQDVDQREAPLNNFSVAQCQLMKTERPRPNTFIIRCLQWTTVIERTFHVETPEEREEWTTAIQTVADGLKKQEEEEMDFRSGSPSDNSGAEEMEVSLAKPKHRVTMNEFEYLKLLGKGTFGKVILVKEKATGRYYAMKILKKEVIVAKDEVAHTLTENRVLQNSRHPFLTALKYSFQTHDRLCFVMEYANGGELFFHLSRERVFSEDRARFYGAEIVSALDYLHSEKNVVYRDLKLENLMLDKDGHIKITDFGLCKEGIKDGATMKTFCGTPEYLAPEVLEDNDYGRAVDWWGLGVVMYEMMCGRLPFYNQDHEKLFELILMEEIRFPRTLGPEAKSLLSGLLKKDPKQRLGGGSEDAKEIMQHRFFAGIVWQHVYEKKLSPPFKPQVTSETDTRYFDEEFTAQMITITPPDQDDSMECVDSERRPHFPQFSYSASGTA
partner: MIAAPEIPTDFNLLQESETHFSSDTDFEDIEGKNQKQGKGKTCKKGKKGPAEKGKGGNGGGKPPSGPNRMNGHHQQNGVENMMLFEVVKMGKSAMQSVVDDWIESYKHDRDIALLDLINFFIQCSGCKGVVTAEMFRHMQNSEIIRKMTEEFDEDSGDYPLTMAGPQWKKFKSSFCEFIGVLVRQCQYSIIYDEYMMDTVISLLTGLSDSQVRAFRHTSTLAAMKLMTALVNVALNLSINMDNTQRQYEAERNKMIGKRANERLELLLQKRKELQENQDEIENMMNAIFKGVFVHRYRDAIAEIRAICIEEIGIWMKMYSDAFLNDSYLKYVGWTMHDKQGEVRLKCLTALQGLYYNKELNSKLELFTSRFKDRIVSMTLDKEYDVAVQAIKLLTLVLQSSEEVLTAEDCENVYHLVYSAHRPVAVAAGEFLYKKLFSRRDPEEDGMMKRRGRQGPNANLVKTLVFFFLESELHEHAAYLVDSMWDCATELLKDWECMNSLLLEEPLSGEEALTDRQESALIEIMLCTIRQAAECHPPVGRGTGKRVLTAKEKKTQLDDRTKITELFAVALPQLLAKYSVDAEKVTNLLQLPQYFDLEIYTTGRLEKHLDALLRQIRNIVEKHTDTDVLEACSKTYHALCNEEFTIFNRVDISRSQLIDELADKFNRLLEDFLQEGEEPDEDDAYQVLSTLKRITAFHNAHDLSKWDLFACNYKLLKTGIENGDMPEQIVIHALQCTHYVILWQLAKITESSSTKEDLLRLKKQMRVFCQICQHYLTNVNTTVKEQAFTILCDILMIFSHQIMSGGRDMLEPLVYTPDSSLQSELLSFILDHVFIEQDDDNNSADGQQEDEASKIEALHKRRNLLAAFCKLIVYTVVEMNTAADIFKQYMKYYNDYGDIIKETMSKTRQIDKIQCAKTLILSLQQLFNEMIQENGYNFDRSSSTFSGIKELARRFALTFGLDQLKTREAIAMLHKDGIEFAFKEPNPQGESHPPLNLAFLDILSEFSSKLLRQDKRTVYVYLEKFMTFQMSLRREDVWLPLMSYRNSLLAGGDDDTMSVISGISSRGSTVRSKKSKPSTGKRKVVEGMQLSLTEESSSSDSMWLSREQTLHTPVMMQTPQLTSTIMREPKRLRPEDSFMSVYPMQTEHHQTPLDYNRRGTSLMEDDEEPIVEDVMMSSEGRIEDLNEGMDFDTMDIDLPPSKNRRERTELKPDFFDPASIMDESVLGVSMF
B2: RAC-alpha serine/threonine-protein kinase (Homo sapiens), P31749 (parent)
chain: B1 chain
partner: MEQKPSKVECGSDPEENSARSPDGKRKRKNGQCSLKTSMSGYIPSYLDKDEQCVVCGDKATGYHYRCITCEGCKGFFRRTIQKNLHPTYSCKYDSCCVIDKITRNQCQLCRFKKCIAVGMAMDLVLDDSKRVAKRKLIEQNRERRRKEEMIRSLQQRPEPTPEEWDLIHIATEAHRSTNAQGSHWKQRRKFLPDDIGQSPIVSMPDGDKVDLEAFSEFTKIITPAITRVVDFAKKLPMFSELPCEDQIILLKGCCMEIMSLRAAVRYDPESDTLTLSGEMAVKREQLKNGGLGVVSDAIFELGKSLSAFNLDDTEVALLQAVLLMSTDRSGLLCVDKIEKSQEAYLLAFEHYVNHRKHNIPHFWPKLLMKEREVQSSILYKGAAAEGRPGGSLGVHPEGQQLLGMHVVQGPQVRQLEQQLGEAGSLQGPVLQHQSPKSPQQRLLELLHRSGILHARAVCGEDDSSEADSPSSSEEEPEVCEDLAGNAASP
B3: RAC-alpha serine/threonine-protein kinase (Homo sapiens), P31749 (parent)
chain: B1 chain
partner: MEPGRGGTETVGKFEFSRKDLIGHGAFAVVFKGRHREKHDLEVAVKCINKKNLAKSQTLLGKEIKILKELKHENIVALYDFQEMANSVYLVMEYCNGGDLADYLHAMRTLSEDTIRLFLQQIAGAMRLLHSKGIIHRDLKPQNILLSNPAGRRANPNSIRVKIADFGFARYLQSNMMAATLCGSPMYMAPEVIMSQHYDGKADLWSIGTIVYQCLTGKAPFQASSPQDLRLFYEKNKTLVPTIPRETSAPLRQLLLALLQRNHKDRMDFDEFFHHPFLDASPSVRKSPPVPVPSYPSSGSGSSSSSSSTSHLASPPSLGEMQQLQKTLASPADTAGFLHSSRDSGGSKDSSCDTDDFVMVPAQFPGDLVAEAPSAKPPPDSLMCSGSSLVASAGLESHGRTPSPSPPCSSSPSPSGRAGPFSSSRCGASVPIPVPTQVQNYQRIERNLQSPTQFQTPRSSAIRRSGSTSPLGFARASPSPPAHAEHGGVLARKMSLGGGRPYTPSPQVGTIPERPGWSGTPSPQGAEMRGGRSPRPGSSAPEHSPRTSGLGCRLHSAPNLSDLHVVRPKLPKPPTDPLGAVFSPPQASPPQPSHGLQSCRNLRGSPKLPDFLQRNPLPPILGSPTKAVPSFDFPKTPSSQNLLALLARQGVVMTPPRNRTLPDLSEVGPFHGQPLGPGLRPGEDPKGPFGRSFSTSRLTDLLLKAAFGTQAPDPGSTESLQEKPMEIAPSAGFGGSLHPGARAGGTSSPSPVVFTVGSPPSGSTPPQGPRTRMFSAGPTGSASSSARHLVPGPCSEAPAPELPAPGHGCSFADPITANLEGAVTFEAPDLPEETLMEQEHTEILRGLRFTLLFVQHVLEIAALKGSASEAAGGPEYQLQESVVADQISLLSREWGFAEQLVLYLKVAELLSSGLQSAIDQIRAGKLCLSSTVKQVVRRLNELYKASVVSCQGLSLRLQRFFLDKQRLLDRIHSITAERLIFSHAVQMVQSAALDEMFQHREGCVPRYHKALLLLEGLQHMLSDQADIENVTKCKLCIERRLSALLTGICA
B4: RAC-alpha serine/threonine-protein kinase (Homo sapiens), P31749 (parent)
chain: B1 chain
partner: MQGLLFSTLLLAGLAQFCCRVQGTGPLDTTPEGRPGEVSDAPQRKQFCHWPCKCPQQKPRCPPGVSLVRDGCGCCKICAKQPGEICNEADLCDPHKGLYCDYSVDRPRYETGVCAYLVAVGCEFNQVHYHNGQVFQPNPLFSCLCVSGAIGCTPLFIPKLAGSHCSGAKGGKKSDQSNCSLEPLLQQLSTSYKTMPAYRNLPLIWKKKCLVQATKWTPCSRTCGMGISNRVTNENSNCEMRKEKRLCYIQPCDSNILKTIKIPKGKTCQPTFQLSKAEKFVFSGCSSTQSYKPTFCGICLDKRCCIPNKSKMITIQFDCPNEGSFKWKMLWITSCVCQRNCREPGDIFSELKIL

Variants of: B1
Details: with stag2_human STAG2, Q8N3U4

| Variant | effect of a mutation on the interaction |
| --- | --- |
| E17K | causing an interaction |

Variants of: B1
Details: with stag2_human STAG2, Q8N3U4
Remark: another data set of the same source

| Variant | effect of a mutation on the interaction |
| --- | --- |
| E17K | increasing interaction strength |

Variants of: B2
Details: with tha_human THRA

| Variant | effect of a mutation on the interaction |
| --- | --- |
| E17K | causing an interaction |

Variants of: B2
Details: with tha_human THRA
Remark: another data set of the same source

| Variant | effect of a mutation on the interaction |
| --- | --- |
| E17K | increasing interaction strength |

Variants of: B3
Details: with ulk1_human ULK1, O75385

| Variant | effect of a mutation on the interaction |
| --- | --- |
| E17K | causing an interaction |

Variants of: B4
Details: with ccn6_human CCN6, O95389

| Variant | effect of a mutation on the interaction |
| --- | --- |
| E17K | causing an interaction |

Variants of: B4
Details: with ccn6_human CCN6, O95389
Remark: another data set of the same source

| Variant | effect of a mutation on the interaction |
| --- | --- |
| E17K | increasing interaction strength |
